# Earlier results in patent US10456439B2, “NK3 agonist for use in the treatment of a patient suffering from atrial arrhythmia or fibrillation” (priority 2014, dated 2019).
# The chains behind the UniProt entries cited, without tags or fusion partners.
# UniProt P21452, whole entry, species assumed: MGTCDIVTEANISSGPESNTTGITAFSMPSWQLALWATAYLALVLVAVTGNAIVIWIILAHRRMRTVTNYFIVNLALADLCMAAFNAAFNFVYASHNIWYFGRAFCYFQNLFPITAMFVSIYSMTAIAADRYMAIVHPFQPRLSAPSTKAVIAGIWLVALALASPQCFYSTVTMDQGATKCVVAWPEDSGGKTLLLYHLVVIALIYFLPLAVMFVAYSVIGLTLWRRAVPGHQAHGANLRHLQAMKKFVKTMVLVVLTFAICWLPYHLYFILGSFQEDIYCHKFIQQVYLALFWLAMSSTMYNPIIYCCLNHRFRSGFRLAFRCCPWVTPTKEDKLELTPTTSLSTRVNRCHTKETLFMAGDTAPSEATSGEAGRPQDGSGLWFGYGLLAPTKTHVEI
# Tests used:
# NK2-receptor [1] = molecular target: T1, NK2-receptor (Homo sapiens, UniProt P21452); conditions: cited from earlier work
# NK2-receptor [2] = molecular target: T1, NK2-receptor; conditions: cited from earlier work; remark: listed apart in the source
substance,measurement,setting,value
Neurokinin A: compound having CAS registry No. 86933-74-6,NK2-receptor Affinity (pEC50),NK2-receptor [1],8.89 pEC50
same,NK2-receptor Affinity (pK1),NK2-receptor [2],8.0-9.1 pK1
